Only a part is listed here, and it is no random draw.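 For each line, cells grew in 96-well plates with the test compound present at a single concentration for 48 hours.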 The source made the active and inactive calls. Rule for the calls: active = growth percent below 10; inactive = the rest.
Experiments:
Experiment in all cases: NCI-60 one-dose screen, 48 h (100 = growth as untreated, 0 = no growth, -100 = all killed)
Details in all cases: 10 µM unless noted
[1] = system: SK-MEL-2 melanoma
[2] = system: EKVX NSCLC
[3] = system: SN12C renal
[4] = system: UO-31 renal
[5] = system: TK-10 renal
[6] = system: ACHN renal
[7] = system: CAKI-1 renal
[8] = system: A498 renal
[9] = system: HL-60(TB) leukemia
[10] = system: CCRF-CEM leukemia
[11] = system: MOLT-4 leukemia
[12] = system: SR leukemia
[13] = system: RPMI-8226 leukemia
[14] = system: OVCAR-8 ovarian
[15] = system: OVCAR-5 ovarian
[16] = system: OVCAR-4 ovarian
[17] = system: SK-OV-3 ovarian
[18] = system: IGROV1 ovarian
[19] = system: OVCAR-3 ovarian
[20] = system: HS 578T breast

Measured: growth

CC1(CCC2(C)N=C(NN=C(CCl)CCl)SP2(=O)Nc2ncccn2)N=C(NN=C(CCl)CCl)SP1(=O)Nc1ncccn1 (stereo not given)
inactive: [1] 107% [100 µM] | [2] 108% [100 µM] | [3] 101% [100 µM] | [4] 89% [100 µM] | [5] 103% [100 µM] | [6] 102% [100 µM] | [7] 93.3% [100 µM] | [8] 109% [100 µM] | [9] 103% [100 µM] | [10] 98.7% [100 µM] | [11] 114% [100 µM] | [12] 101% [100 µM] | [13] 103% [100 µM] | [14] 99.6% [100 µM] | [15] 106% [100 µM] | [16] 100% [100 µM] | [17] 101% [100 µM] | [18] 95.8% [100 µM] | [19] 109% [100 µM] | [20] 105% [100 µM]

ClCCNCc1ccccc1
inactive: [1] 120% | [2] 104% | [3] 114% | [4] 99.3% | [5] 115% | [6] 109% | [7] 103% | [8] 111% | [9] 98.9% | [10] 94.3% | [11] 95.2% | [12] 97.4% | [13] 106% | [14] 109% | [15] 109% | [16] 110% | [17] 119% | [18] 107% | [19] 99.5% | [20] 107%

COc1cc([N+](=O)[O-])c(Nc2ccc(Cl)cc2[N+](=O)[O-])c([N+](=O)[O-])c1
inactive: [1] 87.1% | [2] 59.4% | [3] 43.8% | [4] 52.3% | [5] 68.1% | [6] 56.2% | [7] 42.2% | [8] 181% | [9] 65.8% | [10] 65.3% | [11] 70.3% | [12] 60% | [13] 67.6% | [14] 62.6% | [15] 79.7% | [16] 90.1% | [17] 101% | [18] 69.4% | [19] 91.6% | [20] 77.8%

C=NNc1ccc([N+](=O)[O-])cc1[N+](=O)[O-]
inactive: [1] 104% | [2] 84.9% | [3] 89.3% | [4] 55.5% | [5] 97% | [6] 70.7% | [7] 91.3% | [8] 86.9% | [9] 83% | [10] 67% | [11] 79.9% | [12] 84.5% | [13] 87% | [14] 94.8% | [15] 99.2% | [16] 103% | [17] 96.7% | [18] 86.8% | [19] 96.5% | [20] 91.2%

CCCCCCC(C)OP(O)OC(C)CCCCCC (stereo not given)
inactive: [1] 107% | [2] 96.8% | [3] 101% | [4] 77.8% | [5] 105% | [6] 105% | [7] 89.6% | [8] 126% | [9] 103% | [10] 107% | [11] 116% | [12] 98.2% | [13] 108% | [14] 106% | [15] 117% | [16] 105% | [17] 139% | [18] 98.7% | [19] 117% | [20] 108%

O=[N+]([O-])N1CCCS1(=O)=O
inactive: [1] 105% | [2] 109% | [3] 106% | [4] 86.8% | [5] 90.9% | [6] 108% | [7] 97.4% | [8] 94.7% | [9] 109% | [10] 111% | [11] 108% | [12] 102% | [13] 102% | [14] 104% | [15] 101% | [16] 106% | [17] 97.8% | [18] 106% | [19] 104% | [20] 106%

CC(=O)Nc1ccc([As](=O)(O)O)cc1
inactive: [1] 83.8% | [2] 93.4% | [3] 94.4% | [4] 84.7% | [5] 101% | [6] 97.6% | [7] 62.9% | [8] 139% | [9] 106% | [10] 105% | [11] 116% | [12] 102% | [13] 102% | [14] 107% | [15] 101% | [16] 111% | [17] 117% | [18] 92.6% | [19] 108% | [20] 98.5%

CCN(CCCl)c1ccc(CCC(=O)O)cc1
inactive: [1] 91.8% | [2] 101% | [3] 82% | [4] 91.2% | [5] 92% | [6] 106% | [7] 99.9% | [8] 93.2% | [9] 80.8% | [10] 102% | [11] 85.4% | [12] 84.2% | [13] 103% | [14] 97% | [15] 104% | [16] 108% | [17] 95.5% | [18] 94.1% | [19] 108% | [20] 92.1%

Reference: PubChem BioAssay (NCI)
